Marks after values point to notes of the source that are not given here.
How the values were obtained:
[1] = test system: HaCaT cells; assay: In vitro inhibition of ROS release assay (8 Gy X-ray, flow cytometry); conditions: result in words
Experimental: • Culture medium: DMEM containing 10% FBS; • Test article: Compound 16; control drugs: triethanolamine, hydrocortisone butyrate; • Reagent: ROS assay kit (Beyotime); • Instruments: RS 2000·Pro 225 Rad Source X-ray irradiator; flow cytometer.
The cells were divided into a blank control group, a model group, a Compound 16 group, a triethanolamine group, and a hydrocortisone butyrate group, with 3 replicate wells per group. The cells were cultured in DMEM containing 10% FBS in a 37°C, 5% CO2 incubator. The blank control group and the model group were treated with the corresponding volume of blank solvent (DMSO) only. The Compound 16 group was treated with 0.5 µM Compound 16. The triethanolamine group was treated with 0.5 µM triethanolamine. The hydrocortisone butyrate group was treated with 10 nM hydrocortisone butyrate.
At the end of administration, the cells in the model group, the Compound 16 group, the triethanolamine group, and the hydrocortisone butyrate group were exposed to 8 Gy X-ray irradiation. The blank control group received no irradiation. The intracellular ROS levels in each group were detected by flow cytometry 24 h after irradiation, according to the instructions of the ROS assay kit.

[2] = test system: SD rats; assay: Radiation dermatitis assay (X-ray, 25 Gy); conditions: for content of the cytokine TGF-β1 / number of inflammatory cells in the rat radiation dermatitis model / release of the inflammatory cytokine TNF-α / skin lesion area / skin lesion score in the rat radiation dermatitis model / amount of new granulation tissue in the dermis / number of capillaries in the dermis: result in words; for amount of new granulation tissue in the dermis / number of capillaries in the dermis: pathological observation of rat skin; for Score (skin lesion score of radiation dermatitis): end of administration; for Score (skin lesion score of radiation dermatitis) / Number of inflammatory cells: 100 mg once daily for 28 days, test compounds 0.5% cream, triethanolamine cream 0.67%, hydrocortisone butyrate cream 1 mg/g; for Number of inflammatory cells: skin, HE staining
Experimental: • 5.1 Animals: SD rats, SPF grade, male, 230-250 g. • 5.2 Equipment: RS 2000·Pro 225 Rad Source X-ray Irradiator; SpectraMax i3 Multifunctional Microplate Reader.
Eighty SD rats were randomly divided into groups, with 10 rats in each group. Except for the blank control group, all rats were subjected to modeling using a Rad Source X-ray irradiator. The hair on the irradiation site was removed 24 hours before irradiation. On the day of irradiation, the rats were anesthetized and received a single X-ray irradiation on the posterior buttock at a dose of 25 Gy, a dose rate of 4 Gy/min, and an irradiation area of 2×2 cm^2. On the second day after irradiation, the test groups (Compound 1, Compound 16, Compound 21) received the corresponding drugs, 100 mg per time, once daily for 28 consecutive days. The blank control group and the model (with matrix) group received the corresponding weight of blank matrix (triethanolamine cream matrix). The positive control group was treated with the corresponding weight of triethanolamine cream or hydrocortisone butyrate cream. At the end of administration, the damaged skin was scored according to erythema/darkening, edema/papules, exudation/crusting, and erosion, with reference to the scoring criteria for atopic dermatitis. After scoring, skin from the damaged site was collected and homogenized, and the content of inflammatory cells in the skin was detected using an ELISA kit. Additional skin was collected, fixed, and then stained with HE, and the number of inflammatory cells was observed.
• Test compounds: The formulations were prepared with reference to triethanolamine cream (test compound concentration: 0.5%). • Positive controls: Commercially available triethanolamine cream (from JOHNSON & JOHNSON SANTE BEAUTE FRANCE, specification: 0.67%); hydrocortisone butyrate cream (from Hubei Heng'an Fulin Pharmaceutical Co., Ltd., specification: 1 mg/g).

[3] = test system: BALB/c mice; assay: Atopic dermatitis assay (DNFB), SCORAD score; conditions: for SCORAD score in the mouse atopic dermatitis model: result in words, compared with the model group; for Score (SCORAD): 3% cream, 150 µL twice daily
Experimental: • 4.1 Animals: BALB/c mice, female, 20+2 g. • 4.2 Reagent: 2,4-Dinitrofluorobenzene (DNFB).
The backs of BALB/c mice were shaved. Except for the blank control group, the mice were topically treated with DNFB solution (solvent: mixture of acetone and olive oil, volume ratio 4:1) for sensitization and challenge. No treatment was administered on days 3 to 6. From day 7, the solution was applied once every 2 days for a total of 10 applications, and modeling was completed after the 10th application. The model animals were evenly divided into groups according to the observation scores of skin lesions, with 8 mice in each group. Subsequently, the test groups (Compound 1, Compound 16) received the corresponding drugs at 150 µL per time, twice daily. The model group received the corresponding volume of blank matrix (pimecrolimus cream matrix) at the same dosing frequency. The observation scores of skin lesions were recorded on days 3, 6, and 10 (six items were scored: erythema/darkening, edema/papules, exudation/crusting, erosion, lichenification/prurigo, and dryness, and the total score was the sum of the six individual scores; scoring was performed according to the SCORAD scoring criteria: scores 0 to 3, where score 0: none; score 1: mild; score 2: moderate; score 3: severe). Body weights were measured on days 0, 3, 6, and 10 after modeling.
Test compounds: The formulations were prepared with reference to pimecrolimus cream (test compound concentration: 3%).

[4] = Tissue distribution study; conditions: intragastric 30 mg/kg
Experimental: 3 mg of Compound 16 was accurately weighed, added to solvent (5% DMSO + 5% Tween 80 + 20% PEG400 + 70% double-distilled water), and ultrasonicated until completely dissolved to prepare a 3 mg/mL dosing solution. ICR mice were fasted for 16 h before administration, allowed free access to food and water during the study, and administered intragastrically at a dose of 30 mg/kg. The sampling sites and time points were as follows: […]

Tmax ([4]; Colon) [h] | Tmax ([4]; Kidney) [h] | Tmax ([4]; Liver) [h] | Tmax ([4]; Lung) [h] | Tmax ([4]; Plasma) [h] | Compound | intracellular ROS levels [1] | content of the cytokine TGF-β1 [2] | number of inflammatory cells in the rat radiation dermatitis model [2] | release of the inflammatory cytokine TNF-α [2] | skin lesion area [2] | skin lesion score in the rat radiation dermatitis model [2] | amount of new granulation tissue in the dermis [2] | number of capillaries in the dermis [2] | SCORAD score in the mouse atopic dermatitis model [3] | Score (skin lesion score of radiation dermatitis) [2] | Number of inflammatory cells [2] | Score (SCORAD) ([3]; Day 0) | Score (SCORAD) ([3]; Day 6)
– | – | – | – | – | CCN(CC)CCOC(=O)[C@@]1(C)CC[C@]2(C)CC[C@]3(C)C(=CC(=O)[C@@H]4[C@@]5(C)CCC(=O)C(C)(C)[C@@H]5CC[C@]43C)[C@@H]2C1.Cl | significantly reduce | significantly reduce | significantly reduce | significantly reduce | significantly reduce | significantly reduce | significantly increased | significantly increased | significantly reduce | – | – | – | –
– | – | – | – | – | CC1(C)C(=O)C(Cl)=C[C@]2(C)[C@H]3C(=O)C=C4[C@H]5C[C@@](C)(C(=O)O)CC[C@]5(C)CC[C@@]4(C)[C@]3(C)CC[C@@H]12 | significantly reduce | significantly reduce | significantly reduce | significantly reduce | significantly reduce | significantly reduce | significantly increased | significantly increased | significantly reduce | – | – | – | –
– | – | – | – | – | CCN(CC)CCOC(=O)[C@@]1(C)CC[C@]2(C)CC[C@]3(C)C(=CC(=O)[C@@H]4[C@@]5(C)C=C(C#N)C(=O)C(C)(C)[C@@H]5CC[C@]43C)[C@@H]2C1 | significantly reduce | significantly reduce | significantly reduce | significantly reduce | significantly reduce | significantly reduce | significantly increased | significantly increased | significantly reduce | – | – | – | –
– | – | – | – | – | (2S,4aS,6aS,6bR,8aR,12aS,12bR,14bR)-11-chloro-2,4a,6a,6b,9,9,12a-heptamethyl-10,13-dioxo-1,2,3,4,4a,5,6,6a,6b,7,8,8a,9,10,12a,12b,13,14b-octadecahydropicene-2-carboxylate triethanolamine salt | significantly reduce | significantly reduce | significantly reduce | significantly reduce | significantly reduce | significantly reduce | significantly increased | significantly increased | significantly reduce | – | – | – | –
– | – | – | – | – | CCN(CC)CCOC(=O)[C@@]1(C)CC[C@]2(C)CC[C@]3(C)C(=CC(=O)[C@@H]4[C@@]5(C)CCC(=O)C(C)(C)[C@@H]5CC[C@]43C)[C@@H]2C1 | significantly reduce | significantly reduce | significantly reduce | significantly reduce | significantly reduce | significantly reduce | significantly increased | significantly increased | significantly reduce | 4.8 ·· | 186.6+78.6*** | 16.56 ± 0.50 | –
1 | 4 | 2 | 1 | 1 | CC1(C)C(=O)C(Cl)=C[C@]2(C)[C@H]3C(=O)C=C4[C@@H]5C[C@@](C)(C(=O)O)CC[C@]5(C)CC[C@@]4(C)[C@]3(C)CC[C@@H]12 | significantly reduce | significantly reduce | significantly reduce | significantly reduce | significantly reduce | significantly reduce | significantly increased | significantly increased | significantly reduce | 4.7 ··· | 183 ··· | 16.69 ± 0.46 | 7.56 ± 1.47
– | – | – | – | – | CCN(CC)CCOC(=O)[C@@]1(C)CC[C@]2(C)CC[C@]3(C)C(=CC(=O)[C@@H]4[C@@]5(C)CCC(=O)C(C)(C)[C@@H]5CC[C@]43C)[C@H]2C1 | significantly reduce | significantly reduce | significantly reduce | significantly reduce | significantly reduce | significantly reduce | significantly increased | significantly increased | significantly reduce | – | – | – | –
– | – | – | – | – | CN(C)c1nc2c(s1)C[C@]1(C)[C@H]3C(=O)C=C4[C@@H]5C[C@@](C)(C(=O)O)CC[C@]5(C)CC[C@@]4(C)[C@]3(C)CC[C@H]1C2(C)C | significantly reduce | significantly reduce | significantly reduce | significantly reduce | significantly reduce | significantly reduce | significantly increased | significantly increased | significantly reduce | 4.8 ·· | 189 ··· | – | –

Source: patent EP4831188A1, “GLYCYRRHETINIC ACID DERIVATIVE AND USE THEREOF” (dated 2026)
